# Reference: PubChem BioAssay AID2235 (The Scripps Research Institute Molecular Screening Center, 2010)
# Chains of the proteins cited; added tags and fusions are not shown.
# UniProt P62136, whole entry, looked up: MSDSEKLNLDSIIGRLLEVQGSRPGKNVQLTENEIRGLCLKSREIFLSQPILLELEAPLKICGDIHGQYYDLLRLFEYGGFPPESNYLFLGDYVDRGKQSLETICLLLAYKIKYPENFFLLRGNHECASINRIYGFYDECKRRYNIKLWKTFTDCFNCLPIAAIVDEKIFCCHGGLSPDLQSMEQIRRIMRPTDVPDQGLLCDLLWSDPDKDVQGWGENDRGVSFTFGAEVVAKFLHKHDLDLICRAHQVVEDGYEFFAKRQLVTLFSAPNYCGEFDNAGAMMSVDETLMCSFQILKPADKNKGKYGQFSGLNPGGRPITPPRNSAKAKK
# The list shows a part of the results, in another mix than the full data. The source made the active and inactive calls.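 How the source made its calls: active means inhibition above the mean inhibition of all tested compounds plus 3 SD, computed separately for each screening campaign (cut at about 15% in these data); inactive means the rest.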
# Biological target: Serine/threonine-protein phosphatase PP1-alpha catalytic subunit (Homo sapiens) (UniProt P62136)
# Experiment: inhibition of human PP1 catalytic subunit – biochemical, fluorescence, OMFP substrate, single point, counter-screen for PP5 inhibitor project, primary screen (AID 2235)
# Conditions: purified PP1alpha, at 6.7 µM, stronger effect = higher value
row,Structure (SMILES),inhibition
1,CN(C)C1(CNC(=O)c2ccc(S(C)(=O)=O)cc2)CCCCC1,inactive: -4.02%
2,O=C(/C=C/c1ccccc1)OC1CN2CCC1CC2 (stereo not given),inactive: 4.39%
3,Cc1ccc(C(=O)OC2CN3CCC2CC3)cc1 (stereo not given),inactive: -0.65%
4,CC1CCC(C(C)C)C(OP(=O)(Nc2ccccn2)c2ccccc2)C1 (stereo not given),inactive: 2.63%
5,Cc1nn(-c2ccccc2)c2c1P(=O)(N1CCOCC1)N(C)C(c1ccccc1)=N2 (stereo not given),inactive: -2.61%
6,Nc1cccc([As](=O)(O)c2ccccc2)c1,inactive: -3.33%
7,Cc1ccc(OCC(=O)OC2CN3CCC2CC3)cc1 (stereo not given),inactive: -1.09%
8,O=[As](O)(c1cccs1)c1cccs1,inactive: -5.45%
9,NS(=O)(=O)c1cccc(NC(=O)COC(=O)C(O)(c2ccccc2)c2ccccc2)c1,inactive: -3.3%
10,O=P1(Nc2ccc(Br)cn2)COc2ccccc2OC1,inactive: 2.27%
11,O=P1(Nc2ncccn2)COc2ccccc2OC1,inactive: -2.43%
12,CC(C)(C)C(=O)NC(Sc1ncccn1)C(Cl)(Cl)Cl (stereo not given),inactive: -2.63%
13,Clc1n[nH]nc1-c1nn[nH][15n]1,inactive: -1.77%
14,CCOP(=O)(NC(=NC(C)c1ccccc1)NC(C)c1ccccc1)OCC (stereo not given),inactive: 1.94%
15,CCC1=CC2Cc3nc4ccc(Cl)cc4c(N)c3C(C1)C2 (stereo not given),inactive: -0.88%
16,O=P1(Nc2ccccn2)COc2ccccc2OC1,inactive: -6.86%
17,CCOP(=O)(Nc1ccc(C)cn1)OCC,inactive: 2.54%
18,CN(CCCl)Cc1cc(Cl)c(NC2=NCCN2)c(Cl)c1,inactive: -1.34%
19,CN(C(=O)Cc1ccc(Cl)c(Cl)c1)[C@@H]1CCCC[C@H]1N1CCCC1,inactive: -1.91%
20,CC(C)/C=N\N=C(\N)N[N+](=O)[O-],inactive: -1.75%
21,CC1(CBr)Cn2c(nc3ccccc3c2=O)S1 (stereo not given),inactive: 1.46%
22,O=[As](O)(c1ccccc1Br)c1ccccc1Br,inactive: -0.24%
23,COc1ccccc1CNC(=O)COC(=O)C(O)(c1ccccc1)c1ccccc1,inactive: 4.04%
24,Cc1cccc(OCC(=O)OC2CN3CCC2CC3)c1 (stereo not given),inactive: 0.88%
25,O=[As](O)(c1cccc(O)c1)c1cccc(O)c1,inactive: -3.9%

row,Structure (SMILES),inhibition
1,O=C(OC1CN2CCC1CC2)c1ccc(Cl)cc1 (stereo not given),inactive: -0.48%
2,CS(=O)(=O)c1ccc(Cl)c(NC(=O)COC(=O)C(O)(c2ccccc2)c2ccccc2)c1,inactive: -1.07%
3,O=[As](O)(O)c1cccnc1,inactive: -1.49%
4,COc1cc(C(=O)NCC2(N3CCOCC3)CCCCC2)cc(Cl)c1OC(C)C,inactive: -1.58%
5,CCOP(=O)(Nc1cccc2ccccc12)OCC,inactive: 0.67%
6,COc1cc(C2NCCC3(OCCO3)C2(C)C)cc(OC)c1OC (stereo not given),inactive: 0%
7,Cc1ccc(NCCc2c([N+](=O)[O-])cc([N+](=O)[O-])cc2[N+](=O)[O-])cc1,inactive: -6.6%
8,Nc1cccc2c([As](=O)(O)O)cccc12,inactive: 14.8%
9,CCCOP(=S)(Nc1nc(N)cc(=O)[nH]1)OCCC,inactive: 2.24%
10,O=C(O)COc1ccc([As](=O)(O)O)cc1[N+](=O)[O-],inactive: 2.08%
11,Nc1ccccc1[As](=O)(O)c1ccccc1,inactive: -3.32%
12,O=P(Nc1nccs1)(Oc1ccccc1)Oc1ccccc1,inactive: -1.27%
13,O=P(Nc1nccs1)(c1ccccc1)c1nc2ccccc2s1 (stereo not given),inactive: 11.2%
14,CCOP1(=S)c2c(C)nn(CCC#N)c2N=C(c2ccccc2F)N1C (stereo not given),inactive: -1.32%
15,CS(=O)(=O)c1cc([N+](=O)[O-])c2no[n+]([O-])c2c1,inactive: -0.97%
16,CCOP1(=S)c2c(C)nn(CCC#N)c2N=C(c2ccc(F)cc2)N1C (stereo not given),inactive: -2.63%
17,CN(C(=O)Cc1ccccc1)[C@@H]1CC[C@]2(CCCO2)C[C@H]1N1CCCC1,inactive: -0.84%
18,N#CCCN(C(=O)COC(=O)C(O)(c1ccccc1)c1ccccc1)c1ccc(F)cc1,inactive: 1.01%
19,CN(C(=O)Cc1ccc(Cl)c(Cl)c1)[C@H]1CC[C@@]2(CCCO2)C[C@@H]1N1CCCC1,inactive: -0.63%
20,O=[N+]([O-])c1ccc2c(c1)nnn2O,inactive: -2.47%
21,CN(C)C(=O)c1cc([N+](=O)[O-])cc2c1-c1c(cc([N+](=O)[O-])cc1[N+](=O)[O-])C2=O,inactive: -0.21%
22,NC(=O)Nc1ccc([As](=O)(O)O)cc1,inactive: 2.38%
23,Cc1ccc(OP(=O)(Nc2ccc([N+](=O)[O-])cn2)Oc2ccc(C)cc2)cc1,inactive: -0.78%
24,Cc1ccc2nc3c(c(C)c2c1)CC(C(Cl)Cl)S3 (stereo not given),inactive: 0.73%
25,COc1cc(C(=O)NCC2(N3CCOCC3)CCCCC2)ccc1OCC(C)C,inactive: -1.61%

row,Structure (SMILES),inhibition
1,O=[As](O)(c1ccc(O)cc1)c1ccccc1O,inactive: 1.94%
2,C[As](=O)(O)c1cccc(C(=O)O)c1,inactive: 4.79%
3,O=[N+]([O-])c1cc([N+](=O)[O-])c(-c2ccn[nH]2)s1,inactive: -2.03%
4,CC(C)NC(=O)NP(=O)(Oc1ccccc1)Oc1ccccc1,inactive: -1.49%
5,CCN(CC)C(=S)SC(NC=O)C(Cl)(Cl)Cl (stereo not given),inactive: -2.08%
6,ClCCSc1nnc(-c2cccnc2)o1,inactive: -1.34%
7,CC(C)c1ccc(OP(=O)(Nc2ccccn2)Oc2ccccc2F)cc1 (stereo not given),inactive: -1.6%
8,COc1cc(I)ccc1[As](=O)(O)O,inactive: 0.53%
9,COc1ccc2nc(NP(=O)(c3ccccc3)c3ccccc3)sc2c1,inactive: -0.42%
10,Cc1c2c(nc3ccccc13)SC(C(Cl)Cl)C2 (stereo not given),inactive: 4.72%
11,Cc1cc(=O)[nH]c(N[N+](=O)[O-])n1,inactive: -4.26%
12,O=C(OC1CN2CCC1CC2)C12CC3CC(CC(C3)C1)C2 (stereo not given),inactive: -2.15%
13,COc1ccc(N/C(=N/P(=O)(N2CCOCC2)N2CCOCC2)N2CCOCC2)cc1,inactive: 3.53%
14,O=C(Nc1ccncc1[N+](=O)[O-])c1ccc([N+](=O)[O-])cc1[N+](=O)[O-],inactive: -2.48%
15,O=C(COc1ccccc1)OC1CN2CCC1CC2 (stereo not given),inactive: -1.9%
16,COP1(=S)c2c(C)nn(CCC#N)c2N=C(c2ccc(F)cc2)N1C (stereo not given),inactive: -1.78%
17,CCC(C)N(CC(C)C)C(=S)SC(NC(C)=O)C(Cl)(Cl)Cl (stereo not given),inactive: -0.87%
18,O=C(OC1CN2CCC1CC2)c1cccc([N+](=O)[O-])c1 (stereo not given),inactive: 2.16%
19,CCOC(=O)c1ccc(NC(=O)C(C)(CCl)SC)cc1 (stereo not given),inactive: 3.64%
20,Cc1cc(SC(NC(=O)c2ccccc2)C(Cl)(Cl)Cl)nc(C(C)C)n1 (stereo not given),inactive: -2.24%
21,CCOC(=O)Nc1ccc([As](=O)(O)O)c(O)c1,inactive: -0.13%
22,Cc1cc(SC(NC=O)C(Cl)(Cl)Cl)ncn1 (stereo not given),inactive: -5.03%
23,O=P(Nc1ccccn1)(c1cccc2ccccc12)c1cccc2ccccc12,inactive: 1.45%
24,CCOC(=O)Nc1cccc([As](=O)(O)O)c1,inactive: -1.55%
25,O=C(Nc1cc([As](=O)(O)O)ccc1O)c1ccccc1,inactive: -2.88%

row,Structure (SMILES),inhibition
1,O=[N+]([O-])c1cccc(NC2=NCC(CBr)S2)c1 (stereo not given),inactive: -1.04%
2,O=[N+]([O-])c1ncn(CCn2ncnc2[N+](=O)[O-])n1,inactive: -4.62%
3,CC(C)(C)C(=O)NC(Sc1ccncn1)C(Cl)(Cl)Cl (stereo not given),inactive: -3.7%
4,O=[N+]([O-])c1cc([N+](=O)[O-])c(CCNc2ccccc2)c([N+](=O)[O-])c1,inactive: -2.81%
5,CCc1nc2c(n1)c1c(non1O)c1c2no[n+]1[O-],inactive: 4.48%
6,Cc1ccc(NP(=O)(Oc2ccccc2)Oc2ccccc2)nc1,inactive: 5.04%
7,CC(=O)N1C2C3N(C(C)=O)C1C1N(C(C)=O)C(C(N1C(C)=O)N3C(C)=O)N2C(C)=O,inactive: -0.66%
8,O=[N+]([O-])c1cccc2n[nH]nc12,inactive: -4.11%
9,COc1ccc(C2=NCC(CBr)S2)cc1 (stereo not given),inactive: -4.06%
10,CC1CCN(C(=O)Oc2c(Cl)cc(Cl)c3cccnc23)CC1,inactive: 0.32%
11,CN(C)C(=O)OCCc1n(C)cc[n+]1C,inactive: -1.26%
12,CC(C)=N/N=C(\N)N[N+](=O)[O-],inactive: -4.11%
13,CCN(/C(=N/P(=O)(N1CCOCC1)N1CCOCC1)N1CCOCC1)c1ccc(OC)cc1,inactive: -3.14%
14,C[N+]1=C2C=CC=CC=C2SC12C([N+](=O)[O-])=CC([N+](=O)[O-])=C[C-]2[N+](=O)[O-] (stereo not given),inactive: 9.14%
15,Nc1ccc([As](=O)(O)c2ccc(N)cc2)cc1,inactive: -0.01%
16,CN1CCCC(OC(=O)C(c2ccccc2)c2ccccc2)C1 (stereo not given),inactive: -3.16%
17,Clc1ccc(Cl)c(NC2=NCC(CBr)S2)c1 (stereo not given),inactive: 0.04%
18,Cc1ccc(OP(=O)(Nc2nccs2)Oc2ccc(C)cc2)cc1,inactive: -4.19%
19,COc1ccccc1OP(=O)(Nc1ccc(C)cn1)Oc1ccccc1OC,inactive: -0.57%
20,Cc1ccc(N/C(=N/P(=O)(N2CCOCC2)N2CCOCC2)N2CCOCC2)cc1,inactive: 1.2%
21,CN(C(=O)Cc1ccc(Cl)c(Cl)c1)[C@H]1CCCC[C@H]1N1CCCC1,inactive: -1.95%
22,NC(=O)c1cc([N+](=O)[O-])cc([N+](=O)[O-])c1N,inactive: 1.93%
23,O=C(NC(Sc1ccncn1)C(Cl)(Cl)Cl)c1ccccc1 (stereo not given),inactive: -0.1%
24,Cc1c2non([O-])c-2c(C)[n+](=O)[n+]1[O-],inactive: -2.51%
25,Oc1ccccc1CNc1ccccn1,inactive: 1.14%
